We go through 2 molecules from US20080242843A1 (AFFINICON, published 2008).

Sequences of proteins named here, by UniProt entry; tags and fusion partners are left off. A line that says so, or that is headed by a name, gives the form on record, which may keep a tag or linker. Residues count along the entry.
UniProt Q86VB7, 42-1156, form in doubt: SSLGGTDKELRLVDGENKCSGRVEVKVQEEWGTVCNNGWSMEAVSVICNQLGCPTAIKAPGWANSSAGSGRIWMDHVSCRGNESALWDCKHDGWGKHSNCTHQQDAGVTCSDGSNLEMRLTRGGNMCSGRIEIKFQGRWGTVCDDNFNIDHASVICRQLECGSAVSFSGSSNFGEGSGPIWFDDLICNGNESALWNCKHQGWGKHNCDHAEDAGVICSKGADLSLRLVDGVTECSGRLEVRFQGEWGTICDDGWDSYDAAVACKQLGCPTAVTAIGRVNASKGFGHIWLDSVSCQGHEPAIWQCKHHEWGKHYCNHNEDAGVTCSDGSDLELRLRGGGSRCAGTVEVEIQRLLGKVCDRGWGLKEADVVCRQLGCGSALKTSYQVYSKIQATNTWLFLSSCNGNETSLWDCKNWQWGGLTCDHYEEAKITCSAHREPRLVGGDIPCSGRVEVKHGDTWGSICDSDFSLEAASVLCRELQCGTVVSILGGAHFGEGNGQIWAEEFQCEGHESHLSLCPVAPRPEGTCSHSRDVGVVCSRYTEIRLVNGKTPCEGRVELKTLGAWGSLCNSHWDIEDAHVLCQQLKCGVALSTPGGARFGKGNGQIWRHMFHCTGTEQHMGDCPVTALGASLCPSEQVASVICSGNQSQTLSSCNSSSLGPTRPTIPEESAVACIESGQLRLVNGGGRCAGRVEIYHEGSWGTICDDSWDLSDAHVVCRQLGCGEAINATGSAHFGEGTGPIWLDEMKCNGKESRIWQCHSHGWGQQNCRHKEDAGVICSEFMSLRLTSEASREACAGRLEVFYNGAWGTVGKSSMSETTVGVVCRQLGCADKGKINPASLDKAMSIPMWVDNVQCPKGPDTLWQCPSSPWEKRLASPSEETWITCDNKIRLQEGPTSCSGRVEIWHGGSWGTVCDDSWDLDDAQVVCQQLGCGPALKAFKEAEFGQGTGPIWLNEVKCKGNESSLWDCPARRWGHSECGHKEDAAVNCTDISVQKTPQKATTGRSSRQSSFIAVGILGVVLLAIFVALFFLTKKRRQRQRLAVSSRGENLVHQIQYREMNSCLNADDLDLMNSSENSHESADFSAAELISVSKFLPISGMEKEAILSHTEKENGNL

Test [1] addresses T1, Purified human CD163 (human, UniProt Q86VB7 42-1156).
T1 construct: mature; also called HbSR; Hp-Hb receptor
The experiment in a line: cross-competition, unlabelled Hp(1-1)-Hb against 125I-Hp(2-2)-Hb on CD163 immobilised in microtiter wells (right curve panel).

Test [2] addresses T1, Purified human CD163. The experiment in a line: competition with 125I-Hp(1-1)-Hb for CD163 immobilised in microtiter wells.
Test [3] addresses T1, Purified human CD163. The experiment in a line: competition with 125I-Hp(1-1)-Hb for CD163 immobilised in microtiter wells; apparent Kd.
In test [4] the target is Hp-Hb complex (Hp of mixed or unstated phenotype) (human, UniProt P00738 19-406). In words: Hp-Hb affinity chromatography.

B1: Hp(1-1)-Hb complex (other)
chain 1: VDSGNDVTDIADDGCPKPPEIAHGYVEHSVRYQCKNYYKLRTEGDGVYTLNNEKQWINKAVGDKLPECEAVCGKPKNPANPVQRILGGHLDAKGSFPWQAKMVSHHNLTTGATLINEQWLLTTAKNLFLNHSENATAKDIAPTLTLYVGKKQLVEIEKVVLHPNYSQVDIGLIKLKQKVSVNERVMPICLPSKDYAEVGRVGYVSGWGRNANFKFTDHLKYVMLPVADQDQCIRHYEGSTVPEKKTPKSPVGVQPILNEHTFCAGMSKYQEDTCYGDAGSAFAVHDLEEDTWYATGILSFDKSCAVAEYGVYVKVTSIQDWVQKTIAEN
chain 2: not shown
chain 3: not shown
For the molecule B1, in the test with Purified human CD163 [1], the “IC50 (read off the curve)” value is approximately 1 µg/mL. Besides, the IC50 with Purified human CD163 [2] is approximately 0.3 µg/mL. Moreover, the Kd in the test with Purified human CD163 [3] is approximately 2 nM.

B2: Recombinant HbSR SRCR domain 5-9 (receptor)
chain: not shown
notes: also called HbSR SRCR 5-9
Consider B2, for which the binding result in test [4] was “no binding”.
